Data published in patent publication EP3010915B1 (priority 2013, dated 2014).

System: T-47D cells
Experiment: Cell viability assay (ATPlite)
Format: cell-based
Details: Homo sapiens, T47D, 96-hours of incubation, read-out: Cell Growth, IC50

Question: With `C/C(=N\NC(=O)c1ccccc1)c1cc(Cl)ccc1O` [Compound 11] as the molecule, how does the IC50 read?
Answer: 352 nM

Question: `C/C(=N\NC(=O)c1cccc(S(=O)(=O)N(C)C)c1)c1cc(Cl)ccc1O` [Compound 18] was tested. Which IC50 did it give?
Answer: 565 nM
